Patent US7872027B2, “Low molecular weight Myc-max inhibitors” (University of Pittsburgh - Of the Commonwealth System of …, priority 2006, dated 2011)
pIC50, pKd: −log10 of the molar value.

The chains behind the UniProt entries cited, without tags or fusion partners. Residues count along the entry.
UniProt P01106, 368-454 limits assumed: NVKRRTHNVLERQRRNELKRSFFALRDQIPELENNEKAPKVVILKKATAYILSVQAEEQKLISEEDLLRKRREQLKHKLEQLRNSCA

What was measured:
[1] = system: HL60 human promyelocytic leukemia cells; assay: HL60 cell growth inhibition (trypan blue cell counts)
Description: Note that all structures shown herein are drawn in their Z-isoform and some bonds have been standardized. IC50's here, as well as below for in FIGS. 2 and 3, were calculated based upon dose-response profiles on day 5 following the addition of each compound.
HL60 human promyelocytic leukemia cells were grown in RPMI medium supplemented with 10% fetal calf serum, 100 U/ml penicillin G, and 100 μg/ml streptomycin (all from Mediatech, Inc., Herndon, Va.). Rat fibroblast lines were grown under similar conditions in Dulbecco's modified minimal essential medium. To determine the effects of Myc-Max compounds on HL60 cell growth, logarithmically growing cells (>90% viability) were resuspended in fresh medium. Four (4) ml (a total of 16,000 cells) were then seeded into 6-well plates in the presence of the indicated amount of Myc-Max compound. In all cases, 10058-F4 was included as a reference compound. Daily cell counts were performed manually in triplicate on a hemacytometer using trypan blue exclusion. Viabilities exceeded 85% throughout the course of the experiment.
Each compound was initially tested for its ability to inhibit the growth of the HL60 human promyelocytic leukemia cell line, which expresses high levels of c-Myc as a result of gene amplification (Park S—H, et al. Methods Mol Biol 2004; 261:161-165 (2004)). […]

[2] = target: c-Myc353-439 (c-Myc bHLH-LZ monomer) (Homo sapiens, UniProt P01106); assay: fluorescence polarization binding / titration assay; conditions: for pKd: read-out: affinity for c-Myc353-439 (Kobs), 25° C., equimolar two-fold dilutions
Description: Fluorescence polarization assays. Samples of inhibitor at 25 μM concentration, in the absence and presence of an equimolar concentration of purified c-Myc353-439 peptide, were prepared in 1×PBS buffer (pH 7.4); 1 mM DTT; 5% DMSO. The samples were analyzed in a Photon Technology International QuantaMaster fluorimeter (Birmingham, N.J.) equipped with polymer sheet polarizers at an excitation wavelength of 380 nm and an emission wavelength of 468 nm. Alternative settings (ex: 470 nm; em: 600 nm), were employed for the compounds 7RH and 8RH, which have longer wavelength absorption and emission spectra. Each sample was analyzed in triplicate at 25° C. with sample specific G-factor determination. Titration experiments were performed with the same instrumental settings, temperature, and buffer conditions upon two-fold serial dilution of equimolar mixtures of inhibitor and c-Myc353-439. Reported data represent the average of three to five independent experiments. Data were fit to a quadratic equation derived from the thermodynamic expression of binding equilibrium:
[formula] where [C]0 represents the total concentration of inhibitor and of c-Myc353-439. The value of Kobs was determined from the experimental polarization data by fitting to Eq. 2 using KaleidaGraph (Synergy Software, Reading, Pa.) where pol0 is the polarization in the absence of binding and Δpol is the total change in polarization (Park S-H, Raines R T. Fluorescence polarization assay to quantify protein-protein interactions, Methods Mol Biol 2004; 261:161-165 (2004)).
10058-F4 and its analogs bind directly to c-Myc. Previous studies with 10058-F4 and other structurally unrelated index compounds had not specifically addressed the question of whether their binding required intact c-Myc-Max heterodimers or could occur on monomeric forms of the proteins. In order to address this, we took advantage of the fact that 10058-F4, and most of its analogs, are fluorescent and can depolarize an incident beam of light. Because the degree to which this occurs is partly a function of the molecule's rate of tumbling in solution, binding to either c-Myc or Max should result in a loss of fluorescence depolarization.
The binding affinities for selected active compounds were determined by titrating them with c-Myc353-439 and following the change in polarization of their intrinsic fluorescence. […] When excited with polarized light, they emit substantially depolarized light due to their rotation during the fluorescence lifetime. When the compounds are bound to c-Myc353-439, the polarization increases due to slower tumbling and this change can be used to calculate an observed binding constant. The affinity of parental 10058-F4 for c-Myc353-439 determined this way was […]±0.7 μM (FIGS. 6A-6D). […]

[3] = target: c-Myc-Max(S) heterodimer (Homo sapiens, UniProt P01106); assay: electrophoretic mobility shift assay (EMSA), E-box DNA binding; conditions: for inhibition of E-box DNA binding by c-Myc-Max(S): 60 nM each protein, 10 nM oligonucleotide
Description: Equivalent amounts of nuclear extracts were incubated with the indicated concentrations of the compounds depicted in FIGS. 1-3. Following precipitation of the complexes with an anti-Max antibody, the total amount of associated c-Myc was detected by immunoblotting (top panel). As a control, the lower portion of the blot was probed with an anti-Max antibody (bottom panel). FIGS. 4B, 4C and 4D show EMSAs results. Recombinant c-Myc353-439 (which encodes the complete bHLH-ZIP dimerization domain) and full-length Max(S) were purified to homogeneity from E. coli and used at a final concentration of 60 nM in the presence of the indicated concentration of compound.
Electrophoretic mobility shift Assays (EMSAs). Experiments were performed on 8% polyacrylamide:bis-acrylamide (80:1) gels in 0.5×TBE. Binding reactions were prepared in a buffer consisting of 1×PBS (pH 7.3); 1 mM EDTA; 0.1% NP40; 5% glycerol; 1 mM dithiothreitol; and 0.4 mg/mL BSA. A 22 base-pair E-box-containing double-stranded DNA oligonucleotide labeled on one strand with hexachlorofluoresceine (HEX) consisted of the following sequence:
and was synthesized by Integrated DNA Technologies Inc (Coralville, Iowa). The oligonucleotide was used at 10 nM concentration in all reactions, which also contained 60 nM each of purified c-Myc bHLH-LZ, Max(S), and the indicated amount of each compound. Proteins were first incubated for 90 min at 25° C., followed by addition of the oligonucleotide and an additional 15 minutes incubation before loading on a running gel. Gels were run at 20° C. and scanned on a BioRad FX molecular imager (BioRad, Hercules, Calif.). Data were analyzed with BioRad Quantity One software.
The second method used to gauge the effects of 10058-F4 and its analogs on c-Myc-Max complexes relied on the use of a simple, three component electrophoretic mobility shift assay (EMSA). […] The ability of the resultant heterodimer to bind a double-stranded target oligonucleotide containing a consensus E-box motif was then assessed by PAGE. […]

SMILES	pIC50 ([1]; read-out: ID50, HL60 cell growth, dose-response profiles on day 5 following addition of compound)	affinity for c-Myc353-439 compared with 10058-F4 [2]	pKd [2]	activity in EMSA or co-IP assays compared with 10058-F4 ([3]; EMSA or co-IP assays)	activity in HL60 cells compared with 10058-F4 ([1]; 10058-F4 in parallel)	inhibition of E-box DNA binding by c-Myc-Max(S) [3]	inhibition of E-box DNA binding by c-Myc-Max(S) ([3]; listed as 12RH-NCN1)
CC(C)c1ccc(/C=C2\SC(=S)NC2=O)cc1	4.44	bind better than 10058-F4	6.00	appeared superior to 10058-F4			
O=C1/C(=C/c2ccc(Cl)cc2)SC(=S)N1CN1CCCCC1		tightest binding compound	6.22		activities comparable to that of 10058-F4	quite effective at eliminating E-box binding	among the most effective
